{"source": "paper PMC7196072", "about": "“Cryo-EM structures of PAC1 receptor reveal ligand binding mechanism” (Cell Research, 2020)", "key": {"WT PAC1R [1]": {"molecular_target": "T1, WT PAC1R (Homo sapiens, UniProt P41586)", "T1 construct": "expressed in transfected cells; host or cells: CHO-K1 cells infected with BacMam virus (pJIF1.1)", "T1 sequence (P41586 21-468)": "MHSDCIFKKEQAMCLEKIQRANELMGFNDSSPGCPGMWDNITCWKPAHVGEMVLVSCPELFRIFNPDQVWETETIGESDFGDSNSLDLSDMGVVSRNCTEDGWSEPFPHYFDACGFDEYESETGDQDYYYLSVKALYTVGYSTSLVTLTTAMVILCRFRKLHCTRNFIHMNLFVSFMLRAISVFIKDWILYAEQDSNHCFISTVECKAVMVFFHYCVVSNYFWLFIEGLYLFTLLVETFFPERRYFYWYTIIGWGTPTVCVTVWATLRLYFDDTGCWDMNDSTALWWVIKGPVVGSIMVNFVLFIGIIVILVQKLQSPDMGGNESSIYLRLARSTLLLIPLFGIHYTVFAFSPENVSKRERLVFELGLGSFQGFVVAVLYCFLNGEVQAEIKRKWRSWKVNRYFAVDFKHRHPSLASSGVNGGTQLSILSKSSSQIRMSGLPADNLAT", "assay_type": "cell-based", "settings": "PACAP38 compared with maxadilan"}, "PAC1R Y130A": {"molecular_target": "T2, PAC1R Y130A (Homo sapiens, UniProt P41586, Y130A)", "T2 construct": "expressed in transfected cells; host or cells: CHO-K1 cells infected with BacMam virus (pJIF1.1)", "T2 sequence (P41586 21-468 Y130A)": "T1 sequence (P41586 21-468) with Y110A", "assay": "Functional cAMP assay, PAC1R mutant", "assay_type": "cell-based", "settings": "Y130A vs WT"}, "PAC1R F131A": {"molecular_target": "T3, PAC1R F131A (Homo sapiens, UniProt P41586, F131A)", "T3 construct": "expressed in transfected cells; host or cells: CHO-K1 cells infected with BacMam virus (pJIF1.1)", "T3 sequence (P41586 21-468 F131A)": "T1 sequence (P41586 21-468) with F111A", "assay": "Functional cAMP assay, PAC1R mutant", "assay_type": "cell-based", "settings": "F131A vs WT"}, "PAC1R R199A": {"molecular_target": "T4, PAC1R R199A (Homo sapiens, UniProt P41586, R199A)", "T4 construct": "expressed in transfected cells; host or cells: CHO-K1 cells infected with BacMam virus (pJIF1.1)", "T4 sequence (P41586 21-468 R199A)": "T1 sequence (P41586 21-468) with R179A", "assay": "Functional cAMP assay, PAC1R mutant", "assay_type": "cell-based", "settings": "R199A vs WT"}, "WT PAC1R [2]": {"molecular_target": "T1, WT PAC1R", "settings": "introductory statement, no reference given; cited from earlier work"}}, "note": "Substitutions are numbered along the chain they refer to."}
{"smiles": "CC[C@H](C)[C@H](NC(=O)CNC(=O)[C@H](CC(=O)O)NC(=O)[C@H](CO)NC(=O)[C@@H](N)Cc1c[nH]cn1)C(=O)N[C@@H](Cc1ccccc1)C(=O)N[C@H](C(=O)N[C@@H](CC(=O)O)C(=O)N[C@@H](CO)C(=O)N[C@@H](Cc1ccc(O)cc1)C(=O)N[C@@H](CO)C(=O)N[C@@H](CCCNC(=N)N)C(=O)N[C@@H](Cc1ccc(O)cc1)C(=O)N[C@@H](CCCNC(=N)N)C(=O)N[C@@H](CCCCN)C(=O)N[C@@H](CCC(N)=O)C(=O)N[C@@H](CCSC)C(=O)N[C@@H](C)C(=O)N[C@H](C(=O)N[C@@H](CCCCN)C(=O)N[C@@H](CCCCN)C(=O)N[C@@H](Cc1ccc(O)cc1)C(=O)N[C@@H](CC(C)C)C(=O)N[C@@H](C)C(=O)N[C@@H](C)C(=O)N[C@H](C(=O)N[C@@H](CC(C)C)C(=O)NCC(=O)N[C@@H](CCCCN)C(=O)N[C@@H](CCCNC(=N)N)C(=O)N[C@@H](Cc1ccc(O)cc1)C(=O)N[C@@H](CCCCN)C(=O)N[C@@H](CCC(N)=O)C(=O)N[C@@H](CCCNC(=N)N)C(=O)N[C@H](C(=O)N[C@@H](CCCCN)C(=O)N[C@@H](CC(N)=O)C(=O)N[C@@H](CCCCN)C(N)=O)C(C)C)C(C)C)C(C)C)[C@@H](C)O", "note": "[PACAP38, pituitary adenylate cyclase-activating polypeptide]", "values": [{"measurement": "PAC1R activation potency", "setting": "WT PAC1R [1]", "value": "activate the PAC1R in similar potencies"}, {"measurement": "ligand-induced receptor activity", "setting": "PAC1R Y130A", "value": "but not PACAP38-induced receptor activity"}, {"measurement": "ligand-induced receptor activity", "setting": "PAC1R F131A", "value": "but not PACAP38-induced receptor activity"}, {"measurement": "ligand-induced receptor activity", "setting": "PAC1R R199A", "value": "specifically affected PACAP38-induced receptor activity"}, {"measurement": "PAC1R activation", "setting": "WT PAC1R [2]", "value": "potently activate PAC1R"}]}
